# Experimental data published in ChEMBL document CHEMBL3112390, “Discovery and SAR of 5-aminooctahydrocyclopentapyrrole-3a-carboxamides as potent CCR2 antagonists” (Bioorg Med Chem Lett, 2014).
# Amino acid sequences for entries named in this document (tags omitted). A change or cut given only in a name is not applied to a line headed by its entry.
# UniProt P41597: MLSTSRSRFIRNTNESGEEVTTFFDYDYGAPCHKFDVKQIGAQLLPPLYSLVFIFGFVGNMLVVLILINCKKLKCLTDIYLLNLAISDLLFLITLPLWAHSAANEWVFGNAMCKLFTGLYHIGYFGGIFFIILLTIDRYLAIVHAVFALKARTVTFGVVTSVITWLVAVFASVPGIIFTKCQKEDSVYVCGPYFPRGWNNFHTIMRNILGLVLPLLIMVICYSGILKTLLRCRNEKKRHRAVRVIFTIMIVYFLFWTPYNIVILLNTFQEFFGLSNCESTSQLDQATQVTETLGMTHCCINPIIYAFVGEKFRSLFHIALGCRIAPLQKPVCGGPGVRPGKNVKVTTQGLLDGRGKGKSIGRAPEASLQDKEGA
# Target: C-C chemokine receptor type 2 (Homo sapiens, UniProt P41597)
# Test: Binding affinity to CCR2 receptor (unknown origin)
row,Structure (SMILES),IC50 [nM]
1,COC1COCCC1N[C@@H]1C[C@H]2CNC[C@@]2(C(=O)N2CCc3ncc(C(F)(F)F)cc3C2)C1 (mixture of isomers),780
2,COC1COCCC1N[C@@H]1C[C@H]2CN(C)C[C@@]2(C(=O)N2CCc3ncc(C(F)(F)F)cc3C2)C1 (mixture of isomers),300
3,COC1COCCC1N[C@@H]1C[C@H]2CN(c3ncccn3)C[C@@]2(C(=O)N2CCc3ncc(C(F)(F)F)cc3C2)C1 (mixture of isomers),1300
4,COC1COCCC1N[C@@H]1C[C@H]2CN(C(=O)/C=C/c3ccccc3)C[C@@]2(C(=O)N2CCc3ncc(C(F)(F)F)cc3C2)C1 (mixture of isomers),30
